Test results reported in ChEMBL document CHEMBL1121573, “2-(Aminomethyl)phenols, a new class of saluretic agents. 1. Effects of nuclear substitution” (J Med Chem, 1980).

System: Canis familiaris
Assay: Oral diuretic activity was evaluated by measuring Cl- excretion in dog at 1 mg/kg g after ip administration (0-6 hr)
Format: ADME, organism-based, Canis lupus familiaris, Urine
Parameters: dose 1 mg/kg, route intraperitoneal
Conditions: in vivo

- Diuretic activity: 16.4
SMILES: NS(=O)(=O)c1cc(C(=O)O)c(NCc2ccco2)cc1Cl [FUROSEMIDE]
